# Antibody variant affinities, Ab-95 light chain, assay 2

From the AlphaSeq antibody data of Engelhart et al. 2022 (doi:10.1038/s41597-022-01779-4), copy in the FLAb collection.

The target is the same throughout: PDVDLGDISGINAS, from the HR2 region of SARS-CoV-2 spike.

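Library AAYL52 holds single substitutions and randomly drawn double and triple substitutions in the CDRs. The assay is AlphaSeq: two haploid yeast populations carry antibody and antigen on their surface. The frequency of each diploid, read from paired DNA barcodes, reflects how well the two displayed proteins bind. The ratio of observed to expected reads was calibrated, replicate by replicate, on BCL2-family standards whose Kd was known from biolayer interferometry. The assay was run in three technical replicates.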

Each scFv is VH, three GGGGS repeats, VL, as in the parent Ab-95, and differs from it in the CDRs of the light chain only.
VH: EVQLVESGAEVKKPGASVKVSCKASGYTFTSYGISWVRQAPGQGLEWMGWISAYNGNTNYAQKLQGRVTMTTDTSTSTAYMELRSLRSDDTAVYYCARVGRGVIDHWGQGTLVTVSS
VL: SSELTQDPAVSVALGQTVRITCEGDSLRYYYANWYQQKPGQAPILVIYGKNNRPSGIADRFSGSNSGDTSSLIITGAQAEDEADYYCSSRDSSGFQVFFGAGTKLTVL

Each variant is given by its three light chain CDRs, as the data file delimits them; those of the parent are EGDSLRYYYAN, GKNNRPS, SSRDSSGFQVF.
Every variant below is changed at A32 of the VL (sequential numbering).
Values are apparent Kd, the geometric mean of the replicates that gave a signal; lower means stronger binding.
"nd" means that the variant was in the library but no mating with the target was seen in any replicate; the authors take this as a sign of poor binding, and no number exists.

- EGDSLRYYYRN / GYNNRPS / SSRDSSGFQVF = 11 µM (3 of 3 replicates; controls 5 of 9)
- EGDSLRYYYEN / GKNNRPS / SCRDSSGFQVS = 1.4 µM (2 of 3 replicates; controls 2 of 9)
- EGDDLYYYYWN / GKNNRPS / SSRDSSGFQVF = 9.2 µM (1 of 3 replicates; controls 2 of 9)
- EGDSLRYMYWH / GKNNRPS / SSRDSSGFQVF = nd (0 of 3 replicates; controls 3 of 9)
- EGDSLRYYYIN / GKNNRPS / SSRRSSGFCVF = 1.7 µM (1 of 3 replicates; controls 3 of 9)
- EGDSLRYYYEN / GINNRPS / SSRISSGFQVF = 12 µM (1 of 3 replicates; controls 2 of 9)
- EGHSLRYYYFN / GKNNRPS / RSRDSSGFQVF = 3.9 µM (2 of 3 replicates; controls 6 of 9)
- EGDSLRYYYQN / IKNNRPS / SSRDSSGFQTF = 81 µM (1 of 3 replicates; controls 1 of 9)
- EGDSLRYYYRN / GKNNRPS / SSRDSSGCQVF = 1.0 µM (3 of 3 replicates; controls 5 of 9)
- EGDSLRYYYRN / GKNNRPS / SSRDSSGHQVF = nd (0 of 3 replicates; controls 3 of 9)
- EGDSLRYYYEN / GKNNIPS / SSRDSPGFQVF = 1.5 µM (1 of 3 replicates; controls 5 of 9)
- EGDSLRYYYLN / GKNTRPN / SSRDSSGFQVF = 1.8 µM (1 of 3 replicates; controls 1 of 9)
- EGDSLRYYYIN / GKNNRKS / SSRDSSGFQVF = nd (0 of 3 replicates; controls 0 of 9)
- EGDSLRYYYFN / IKNNRPS / SSRDPSGFQVF = 24 µM (3 of 3 replicates; controls 6 of 9)
- EGDNLRYYYQN / GKNNRPW / SSRDSSGFQVF = 5.7 µM (3 of 3 replicates; controls 4 of 9)
- EGDSLRYYYDN / GKNNRPS / SSRDVSGWQVF = nd (0 of 3 replicates; controls 1 of 9)
- EGDSLRYYYPN / GKNNIPS / SSRDCSGFQVF = 3.9 µM (2 of 3 replicates; controls 1 of 9)
- EGDSLVYYYKN / GKNNRPS / SSRDSLGFQVF = 2.4 µM (3 of 3 replicates; controls 0 of 9)
- EGDSLRYYEHN / GKNNRPS / SSRDCSGFQVF = nd (0 of 3 replicates; controls 2 of 9)
- EGDCYRYYYCN / GKNNRPS / SSRDSSGFQVF = nd (0 of 3 replicates; controls 0 of 9)
- EGDSLRYIYYN / GKNNRPS / SSRDSSGFQDF = 68 µM (1 of 3 replicates; controls 0 of 9)
- EGDSLRYYVLN / GKNNRPS / SSRDSSGMQVF = 1.5 µM (3 of 3 replicates; controls 3 of 9)
- EGDSLRYYYQN / GKNNRPS / SSRDSSGFQVF = 780 nM (3 of 3 replicates; controls 2 of 9)
- EGDSLRYYYEN / GKNVRPS / SSDDSSGFQVF = nd (0 of 3 replicates; controls 4 of 9)
- EGDSLRYPYVN / GKNNRPS / SSADSSGFQVF = 160 nM (3 of 3 replicates; controls 1 of 9)
- EGDSLRYYYRN / GKNNRPS / QSRDSSGPQVF = nd (0 of 3 replicates; controls 3 of 9)
- EGDSLCYYYEW / GKNNRPS / SSRDSSGFQVF = nd (0 of 3 replicates; controls 1 of 9)
- EGDALRYYYFN / GKNNRPS / SSRDSSGFQVF = 7.4 µM (2 of 3 replicates; controls 4 of 9)
- EGDSLRYYYSN / GKNNRPS / SSRDFSGFQNF = 2.2 µM (2 of 3 replicates; controls 2 of 9)
- EGDSLRYYYGN / GKNIRPS / SSRDSSGFQVW = 170 nM (3 of 3 replicates; controls 2 of 9)
- EGDSLRYYYSN / GKNNRPS / SSRDSSGFQFF = 380 nM (3 of 3 replicates; controls 4 of 9)
- EGDSLRLYYNN / GKNNRPS / SSRDSIGFQVF = 66 µM (1 of 3 replicates; controls 4 of 9)
- EGDSLRYYYHN / GKNNRPS / SSRDSSGFQVF = 5.6 µM (3 of 3 replicates; controls 1 of 9)
- EQDSLAYYYVN / GKNNRPS / SSRDSSGFQVF = 630 nM (3 of 3 replicates; controls 3 of 9)
- EGDSLRYYYVN / GKNNRFS / SKRDSSGFQVF = nd (0 of 3 replicates; controls 0 of 9)
- EGTSLRYYYKN / GKNNRPS / SSRDSSGFQVF = 240 nM (3 of 3 replicates; controls 4 of 9)
- EGDSLRYYYWN / GKNNRPS / QSRDSSGFQVF = nd (0 of 3 replicates; controls 1 of 9)
- EGDSFLYYYIN / GKNNRPS / SSRDSSGFQVF = 1.1 µM (1 of 3 replicates; controls 1 of 9)
- EGDSLRYYYRN / KKNNRPS / SSMDSSGFQVF = 7.4 µM (2 of 3 replicates; controls 3 of 9)
- KGDSLRYYYQN / GKNNRPS / SSRDMSGFQVF = 11 µM (3 of 3 replicates; controls 0 of 9)
- EGDFLCYYYCN / GKNNRPS / SSRDSSGFQVF = nd (0 of 3 replicates; controls 3 of 9)
- EGDSLRYYYFN / GKNNRPS / SSVDSSGFQVF = 11 µM (1 of 3 replicates; controls 2 of 9)
- CGDSLRYYYKN / GKWNRPS / SSRDSSGFQVF = 30 µM (2 of 3 replicates; controls 1 of 9)
- EGDSLYYYYSN / GKNSRPS / SSRDSSGFQVF = 660 nM (3 of 3 replicates; controls 0 of 9)

6 of these entries, quoted again:

CDR-L1,CDR-L2,CDR-L3,apparent Kd,replicates with signal,signal with controls
EGHSLRYYYFN,GKNNRPS,RSRDSSGFQVF,3.9 µM,2/3,6/9
EGDSLRYYYHN,GKNNRPS,SSRDSSGFQVF,5.6 µM,3/3,1/9
EGDSLRYYYRN,GYNNRPS,SSRDSSGFQVF,11 µM,3/3,5/9
EGDSLRYYYIN,GKNNRKS,SSRDSSGFQVF,nd,0/3,0/9
EGDSLRYYYDN,GKNNRPS,SSRDVSGWQVF,nd,0/3,1/9
EGDSLCYYYEW,GKNNRPS,SSRDSSGFQVF,nd,0/3,1/9

Three control strains display no target. For library AAYL52, 28% of the pairings with them gave a signal, with a median of 8.2 µM and one signal in twenty below 800 nM, so weak values seen in few replicates may be background. The control count says in how many pairings with the empty strains this scFv gave a signal.